Assay results from ChEMBL document CHEMBL1121753 (J Med Chem, 1981).

Each compound was assayed on ADJ/PC6 (assay: Compound was tested for dose required to kill 50 % of ADJ/PC6 mouse plasma cell tumor in a group).

Compound | LD50 [mg/kg]
[O-][P@+]1(N(CCCl)CCCl)NC[C@@H](F)CO1 | 320
[O-][P@+]1(N(CCCl)CCCl)NC[C@H](Cl)CO1 | 540
[O-][P@+]1(N(CCCl)CCCl)NC[C@@H](Cl)CO1 | 380
[O-][P@+]1(N(CCCl)CCCl)NC[C@H](F)CO1 | 320
